# Assay results published in PubChem BioAssay AID651768 (National Center for Advancing Translational Sciences (NCATS), 2012).
# Amino acid sequences for entries named in this document (tags omitted).
# UniProt Q14191, whole entry, looked up: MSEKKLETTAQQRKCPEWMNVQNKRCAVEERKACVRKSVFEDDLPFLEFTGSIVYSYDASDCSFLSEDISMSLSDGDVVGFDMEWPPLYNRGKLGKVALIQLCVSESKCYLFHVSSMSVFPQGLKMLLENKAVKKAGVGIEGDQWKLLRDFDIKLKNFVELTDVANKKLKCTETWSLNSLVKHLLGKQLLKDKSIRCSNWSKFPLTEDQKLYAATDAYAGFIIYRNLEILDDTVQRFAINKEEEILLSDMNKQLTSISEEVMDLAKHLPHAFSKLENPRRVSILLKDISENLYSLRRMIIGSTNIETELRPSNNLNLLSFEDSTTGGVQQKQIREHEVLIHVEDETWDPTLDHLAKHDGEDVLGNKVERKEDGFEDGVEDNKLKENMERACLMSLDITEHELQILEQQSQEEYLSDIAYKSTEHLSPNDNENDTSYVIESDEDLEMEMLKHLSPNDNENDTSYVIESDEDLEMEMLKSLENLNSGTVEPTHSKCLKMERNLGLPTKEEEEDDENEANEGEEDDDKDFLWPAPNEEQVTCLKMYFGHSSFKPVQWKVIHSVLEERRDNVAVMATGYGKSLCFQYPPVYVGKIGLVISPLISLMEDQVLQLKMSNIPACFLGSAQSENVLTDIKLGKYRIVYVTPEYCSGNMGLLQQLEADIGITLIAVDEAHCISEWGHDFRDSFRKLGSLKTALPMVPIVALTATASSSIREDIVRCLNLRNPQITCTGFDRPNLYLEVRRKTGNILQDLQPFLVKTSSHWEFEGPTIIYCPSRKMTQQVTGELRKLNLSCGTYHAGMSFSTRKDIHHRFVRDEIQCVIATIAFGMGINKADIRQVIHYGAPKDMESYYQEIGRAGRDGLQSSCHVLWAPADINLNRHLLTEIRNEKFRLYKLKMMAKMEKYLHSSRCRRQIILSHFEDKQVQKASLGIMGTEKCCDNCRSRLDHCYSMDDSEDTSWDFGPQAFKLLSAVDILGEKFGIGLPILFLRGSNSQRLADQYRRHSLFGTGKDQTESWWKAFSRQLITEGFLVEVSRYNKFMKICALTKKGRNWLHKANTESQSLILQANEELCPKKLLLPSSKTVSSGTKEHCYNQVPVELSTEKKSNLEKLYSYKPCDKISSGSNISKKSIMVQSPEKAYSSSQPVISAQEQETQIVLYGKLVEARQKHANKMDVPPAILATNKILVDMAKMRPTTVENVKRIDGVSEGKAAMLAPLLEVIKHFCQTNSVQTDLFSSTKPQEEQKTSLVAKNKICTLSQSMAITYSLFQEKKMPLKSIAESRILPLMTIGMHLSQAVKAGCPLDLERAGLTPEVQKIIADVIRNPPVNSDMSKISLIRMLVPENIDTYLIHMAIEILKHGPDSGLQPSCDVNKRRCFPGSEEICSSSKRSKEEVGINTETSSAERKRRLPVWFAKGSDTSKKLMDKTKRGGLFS
# Only a part is listed here, and it is no random draw. Active and inactive are the calls of the source. The call rests on the fitted dose curve; in most records, active means well fitted inhibition curve with a large enough effect; inconclusive means small, poorly fitted or top-dose-only effect; inactive means no such curve, though single readings can be large or run the other way.
# Biological target: Bifunctional 3'-5' exonuclease/ATP-dependent helicase WRN (Homo sapiens) (UniProt Q14191)
# Experiment: qHTS for Inhibitors of WRN Helicase; further: nearly all actives have a fitted effect of over 55% in size
# Conditions: WRN helicase unwinding, fluorescent forked duplex, kinetic; series mostly up to 114 µM; activity change, negative = inhibition: at the top concentration
# Summary of the method: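 Fluorescence dequenching readout, ex 525 nm/em 598 nm, kinetic mode: forked duplex DNA (100 nM final) with adjacent fluorophore and quencher unwound by WRN (20 nM final) with 2 mM ATP. Compound preincubation 15 min, room temperature.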
# On the % scale 0 is the no-effect control and ±100 the full control effect; potency means the concentration at half of the fitted maximal effect.
Compound,"activity change, negative = inhibition",Potency
O=P1(N(CCCl)CCCl)OCCCS1 (stereo not drawn),inactive: -1.49%,–
O=C(Nc1cc([As](=O)(O)O)ccc1O)c1ccccc1,inactive: -3.96%,–
CC(C)(C)C(=O)NC(Sc1ccncn1)C(Cl)(Cl)Cl (stereo not drawn),inactive: -12.3%,–
O=[N+]([O-])c1ncn(CCn2ncnc2[N+](=O)[O-])n1,inactive: -5.17%,–
O=[N+]([O-])c1cccc(NC2=NCC(CBr)S2)c1 (stereo not drawn),inactive: 3.27%,–
COC(=O)C1(C)COP(=O)(Nc2ccccc2)OC1 (stereo not drawn),inactive: -0.489%,–
O=C(O)CNc1ccc([As](=O)(O)O)cc1,inactive: 1.79%,–
O=C(O)c1ccccc1[As](=O)(O)O,inactive: 10.9%,–
CC(=O)Nc1ccc([As](=O)(O)O)cc1,inactive: 5.13%,–
CCCC1OP(N)(=O)OCC1CC (stereo not drawn),inactive: 4.2%,–
CN(C)P(=O)(N(C)C)n1c(Nc2ccccc2)nnc1-c1ccccc1,inactive: -4.85%,–
O=P(Nc1nc2ccc(Cl)cc2s1)(c1ccccc1)c1ccccc1,inactive: -8.36%,–
CCOP(=O)(Nc1ccccc1)OCC,inactive: 6.79%,–
Cc1cc(SC(NC(=O)c2ccc(F)cc2)C(Cl)(Cl)Cl)ncn1 (stereo not drawn),–,active: 56.2 µM
Cc1ccc(NP(=O)(Oc2ccccc2F)Oc2ccccc2F)nc1,inactive: -1.4%,–
CN(C(=O)Cc1ccc(Cl)c(Cl)c1)[C@H]1CCCC[C@@H]1N1CCCC1,inactive: -4.5%,–
CCN(N=Nc1nonc1N)c1nonc1N,inactive: -5.74%,–
Nc1cccc2ccc([As](=O)(O)O)cc12,inactive: 10.2%,–
NC(=O)c1cc([N+](=O)[O-])cc([N+](=O)[O-])c1N,inactive: -2.74%,–
Cc1ccc(N/C(=N/P(=O)(N2CCOCC2)N2CCOCC2)N2CCOCC2)cc1,inactive: 3.23%,–
COc1ccccc1OP(=O)(Nc1ccc(C)cn1)Oc1ccccc1OC,inactive: 8.35%,–
Cc1ccc(OP(=O)(Nc2nccs2)Oc2ccc(C)cc2)cc1,inactive: -19.6%,–
Clc1ccc(Cl)c(NC2=NCC(CBr)S2)c1 (stereo not drawn),inactive: -5.37%,–

Compound,"activity change, negative = inhibition",Potency
CN1CCCC(OC(=O)C(c2ccccc2)c2ccccc2)C1 (stereo not drawn),inactive: 0.199% [at 57.1 µM],–
CC(C)CC(=O)NC(Sc1ccc(Cl)cc1)C(Cl)(Cl)Cl (stereo not drawn),inactive: -5.35% [at 57.1 µM],–
Nc1cc(N)c2nonc2c1[N+](=O)[O-],inactive: -31.4%,–
Oc1ccccc1CNc1ccccn1,inactive: -11.8%,–
O=[N+]([O-])C1C(O)C(O)C([N+](=O)[O-])C(O)C1O (stereo not drawn),inactive: -5.13%,–
O=P1(Nc2nc3ccc(Cl)cc3s2)COc2ccccc2O1 (stereo not drawn),inactive: 5.6%,–
CCOc1ccc(C2=NCC(CBr)S2)cc1 (stereo not drawn),inactive: 2.83%,–
CCc1cc(O)c([N+](=O)[O-])c(C)c1[N+](=O)[O-],inactive: -9.42%,–
CC(C)(C)C(=O)NC(Sc1ccccc1)C(Cl)(Cl)Cl (stereo not drawn),inactive: 2.08%,–
CC(=O)c1ccc(N2CC2c2ccncc2)cc1 (stereo not drawn),inactive: 3.24%,–
COC(=O)C1(C)COP(=O)(NCc2ccccc2)OC1 (stereo not drawn),inactive: 6.51%,–
Cc1ccccc1CN(C)C(=O)COC(=O)C(O)(c1ccccc1)c1ccccc1,inactive: -10.6%,–
C[C@@H]1C=CCP(=O)(Oc2ccccc2)O1 (stereo partly drawn),inactive: 5.17%,–
C[C@H]1OP(=O)(Oc2ccccc2)C[C@@H]2O[C@@H]21 (stereo partly drawn),inactive: 0.353%,–
CC(=O)Nc1ccc([As](=O)(O)O)c(O)c1,inactive: 1.93%,–
CC(=O)Nc1ccc(Oc2c([N+](=O)[O-])cc([N+](=O)[O-])cc2[N+](=O)[O-])cc1,inactive: -1.38%,–
CCNC(=S)/N=C(\N)N[N+](=O)[O-],inactive: 2.11%,–
O=C(NC1CCS(=O)(=O)C1)NP(=S)(Oc1ccccc1)Oc1ccccc1 (stereo not drawn),inactive: -0.129% [at 57.1 µM],–
c1ccc(-c2nn[nH]n2)c(-c2nn[nH]n2)c1,inactive: -24.3%,–
Cc1ccc(NP(=O)(Oc2cccc(C)c2)Oc2cccc(C)c2)nc1,inactive: 2.66%,–
O=P1(N(CCCl)CCCl)OCCC2CCCCN21 (stereo not drawn),inactive: 1.51%,–
COC(=O)c1cc2c(s1)N=C(c1ccccc1)N(C)P2(=O)N1CCOCC1 (stereo not drawn),inactive: 6.29%,–
Cc1ccc(OP(=O)(Nc2ccccn2)Oc2ccc(C)cc2)cc1,inactive: -1.34% [at 57.1 µM],–

Compound,"activity change, negative = inhibition",Potency
CC(=O)NC(SC(=S)N(CC(C)C)CC(C)C)C(Cl)(Cl)Cl (stereo not drawn),inactive: -14.7% [at 57.1 µM],–
O=C(OC1CN2CCC1CC2)c1ccccc1 (stereo not drawn),inactive: -7.33%,–
CCC(=O)N1C2C3N(C(=O)CC)C1C1N(C(=O)CC)C(C(N1C(=O)CC)N3C(=O)CC)N2C(=O)CC,inactive: 5.96%,–
Cc1ccccc1OP(=O)(Nc1ccccn1)Oc1ccccc1C,inactive: -21.2%,–
CC(NC(=O)COC(=O)C(O)(c1ccccc1)c1ccccc1)c1ccccc1 (stereo not drawn),inactive: 0.403%,–
CN(C)C(=O)Oc1noc2ccccc12,inactive: -3.67%,–
Nc1ccc(CCCCOc2ccccc2)cc1,inactive: 3.85% [at 57.1 µM],–
COc1ccc(N)c([N+](=O)[O-])c1[N+](=O)[O-],inactive: -24.1%,–
O=P(Nc1ccccn1)(c1ccc(Br)cc1)c1ccc(Br)cc1,inactive: -1.65%,–
CN(C)C1(CNC(=O)c2ccc(Cl)c(S(N)(=O)=O)c2)CCCCC1,inactive: 6.07%,–
O=P(Nc1nc2ccccc2s1)(c1ccccc1)c1ccccc1,inactive: -8.62%,–
C[C@H]1OP(=O)(Oc2ccccc2)[C@H](O)[C@H](O)[C@H]1N=[N+]=[N-] (stereo partly drawn),inactive: 3.19%,–
O=[N+]([O-])c1ccc(O)c(/C=N/Nc2ccc([N+](=O)[O-])cc2[N+](=O)[O-])c1,inactive: -14.1%,–
O=[N+]([O-])c1ncn(CCn2cnc([N+](=O)[O-])n2)n1,inactive: 8.92%,–
CC(=O)NC(SC(=S)N(C)C)C(Cl)(Cl)Cl (stereo not drawn),inactive: -9.27%,–
O=[As](O)(c1ccccc1)c1ccc(O)cc1,inactive: -2.61%,–
Nc1ccc([As](=O)(O)c2ccc([N+](=O)[O-])cc2)cc1,inactive: -6.75%,–
C(Cc1nn[nH]n1)Cc1nn[nH]n1,inactive: 0.472%,–
O=C(OC1CN2CCC1CC2)c1cccc(Cl)c1 (stereo not drawn),inactive: 9.95%,–
CC(C)C(=O)NC(Sc1ccccc1)C(Cl)(Cl)Cl (stereo not drawn),inactive: -3.09%,–
O=P(Nc1nccs1)(c1ccccc1)c1ccccc1,inactive: 4.3%,–
c1nnnn1CCn1cnnn1,inactive: 0.34%,–
